The values below come from ChEMBL document CHEMBL1157393, “Selective inhibition of aromatase by a dihydroisocoumarin from Xyris pterygoblephara” (J Nat Prod, 2008).

Amino acid sequences for entries named in this document (tags omitted). A change or cut given only in a name is not applied to a line headed by its entry.
UniProt P11511: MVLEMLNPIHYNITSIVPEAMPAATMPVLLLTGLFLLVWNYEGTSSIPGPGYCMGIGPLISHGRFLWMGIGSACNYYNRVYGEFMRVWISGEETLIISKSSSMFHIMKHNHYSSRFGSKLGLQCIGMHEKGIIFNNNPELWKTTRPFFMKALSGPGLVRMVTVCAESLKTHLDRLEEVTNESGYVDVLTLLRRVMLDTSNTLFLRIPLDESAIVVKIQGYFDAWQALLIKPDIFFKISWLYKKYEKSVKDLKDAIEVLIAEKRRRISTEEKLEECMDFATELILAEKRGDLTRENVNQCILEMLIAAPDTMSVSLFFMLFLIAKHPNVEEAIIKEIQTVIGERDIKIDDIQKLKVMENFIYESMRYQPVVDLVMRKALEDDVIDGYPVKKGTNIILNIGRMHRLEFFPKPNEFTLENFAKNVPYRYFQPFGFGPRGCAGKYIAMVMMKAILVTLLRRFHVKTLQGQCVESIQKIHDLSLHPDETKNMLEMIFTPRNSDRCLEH

The target in test [1] is T1, Aromatase (Homo sapiens, UniProt P11511). The test can be described thus: Inhibition of aromatase by radiometric method.
In test [2] the target is T1, Aromatase. The test can be described thus: Inhibition of aromatase by fluorimetric high throughput method.
For test [3], the target named is T1, Aromatase. The test can be described thus: Inhibition of aromatase by fluorimetric method.

For the molecule `CC(C)=CCc1cc(C2CC(=O)c3ccc(O)cc3O2)ccc1O` (racemic) [(RAC)-ABYSSINONE II], the IC50 against Aromatase [1] was 0.6 µM; against Aromatase [2], 62 µM; against Aromatase [3] it was 40.9 µM.
